Permeability data for macrocyclic peptides

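Conditions beyond the assay type are not listed; see the original paper. Other peptides of the study may be missing here. Entries at the database's floor value (log10 P of -10) are not listed.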

PAMPA measures passive passage through an artificial lipid membrane.
Values are log10 P with P in cm/s, so -5 is more permeable than -7.

CCC[C@@H]1NC(=O)[C@H](CC(C)C)N(C)C(=O)[C@H](CC(C)C)N(C)C(=O)CN(C)C(=O)[C@H](CC(C)C)N(C)C(=O)[C@@H](C)NC(=O)[C@H](CCC(N)=O)NC(=O)[C@H](CC(C)C)N(C)C(=O)[C@H](C(C)C)NC(=O)[C@H](CC(C)C)N(C)C(=O)CN(C)C1=O is reported with PAMPA -7.96 (log10 cm/s). For CCC[C@@H]1NC(=O)[C@H](CC(C)C)N(C)C(=O)[C@H](CC(C)C)N(C)C(=O)[C@H](CC(C)C)N(C)C(=O)CN(CCCCN)C(=O)[C@@H](C)NC(=O)[C@H](CCC(N)=O)NC(=O)[C@H](CC(C)C)N(C)C(=O)[C@H](C(C)C)NC(=O)[C@H](CC(C)C)N(C)C(=O)CN(C)C1=O the data give PAMPA -8.22 (log10 cm/s). The entry for CCC[C@@H]1NC(=O)[C@H](CC(C)C)N(C)C(=O)[C@H](CC(C)C)N(C)C(=O)CN(CC(C)C)C(=O)[C@H](CC(C)C)N(C)C(=O)[C@@H](C)NC(=O)[C@H](CCC(N)=O)NC(=O)[C@H](CC(C)C)N(C)C(=O)[C@H](C(C)C)NC(=O)[C@H](CC(C)C)N(C)C(=O)CN(C)C1=O lists PAMPA -8.05 (log10 cm/s). CCC[C@@H]1NC(=O)[C@H](CC(C)C)N(C)C(=O)[C@H](CC(C)C)N(C)C(=O)[C@H](CC(C)C)N(C)C(=O)[C@H](CC(C)C)N(C)C(=O)[C@@H](C)NC(=O)[C@H](CCC(N)=O)NC(=O)[C@H](CC(C)C)N(C)C(=O)[C@H](C(C)C)NC(=O)CN(C)C(=O)CN(C)C1=O has PAMPA -7.89 (log10 cm/s). The entry for CCC[C@@H]1NC(=O)[C@H](CC(C)C)N(C)C(=O)[C@H](CC(C)C)N(C)C(=O)[C@H](CC(C)C)N(C)C(=O)CN(CCO)C(=O)[C@@H](C)NC(=O)[C@H](CCC(N)=O)NC(=O)[C@H](CC(C)C)N(C)C(=O)[C@H](C(C)C)NC(=O)[C@H](CC(C)C)N(C)C(=O)CN(C)C1=O lists PAMPA -8.10 (log10 cm/s). CCC[C@@H]1NC(=O)[C@H](CC(C)C)N(C)C(=O)[C@H](CC(C)C)N(C)C(=O)[C@H](CC(C)C)N(C)C(=O)CN(C)C(=O)[C@@H](C)NC(=O)[C@H](CCC(N)=O)NC(=O)[C@H](CC(C)C)N(C)C(=O)[C@H](C(C)C)NC(=O)[C@H](CC(C)C)N(C)C(=O)CN(C)C1=O has PAMPA -7.74 (log10 cm/s). CCC[C@@H]1NC(=O)[C@H](CC(C)C)N(C)C(=O)[C@H](CC(C)C)N(C)C(=O)[C@H](CC(C)C)N(C)C(=O)[C@H](CC(C)C)N(C)C(=O)[C@@H](C)NC(=O)[C@H](CCC(N)=O)NC(=O)[C@H](CC(C)C)N(C)C(=O)[C@H](C(C)C)NC(=O)CN(Cc2ccccc2)C(=O)CN(C)C1=O has PAMPA -8.05 (log10 cm/s).

For CCC[C@@H]1NC(=O)[C@H](CC(C)C)N(C)C(=O)[C@H](CC(C)C)N(C)C(=O)[C@H](CC(C)C)N(C)C(=O)[C@H](CC(C)C)N(C)C(=O)[C@@H](C)NC(=O)[C@H](CCC(N)=O)NC(=O)[C@H](CC(C)C)N(C)C(=O)[C@H](C(C)C)NC(=O)CN(CCCCN)C(=O)CN(C)C1=O the data give PAMPA -8.15 (log10 cm/s). Listed for CCC[C@@H]1NC(=O)[C@H](CC(C)C)N(C)C(=O)[C@H](CC(C)C)N(C)C(=O)[C@H](CC(C)C)N(C)C(=O)[C@H](CC(C)C)N(C)C(=O)[C@@H](C)NC(=O)[C@H](CCC(N)=O)NC(=O)[C@H](CC(C)C)N(C)C(=O)[C@H](C(C)C)NC(=O)[C@H](CC(C)C)N(C)C(=O)CN(C)C1=O: PAMPA -8.00 (log10 cm/s). For CCC[C@@H]1NC(=O)[C@H](CC(C)C)N(C)C(=O)[C@H](CC(C)C)N(C)C(=O)[C@H](CC(C)C)N(C)C(=O)CN(CCC(=O)O)C(=O)[C@@H](C)NC(=O)[C@H](CCC(N)=O)NC(=O)[C@H](CC(C)C)N(C)C(=O)[C@H](C(C)C)NC(=O)[C@H](CC(C)C)N(C)C(=O)CN(C)C1=O the data give PAMPA -8.72 (log10 cm/s). CCC[C@@H]1NC(=O)[C@H](CC(C)C)N(C)C(=O)[C@H](CC(C)C)N(C)C(=O)CN(CCOC)C(=O)[C@H](CC(C)C)N(C)C(=O)[C@@H](C)NC(=O)[C@H](CCC(N)=O)NC(=O)[C@H](CC(C)C)N(C)C(=O)[C@H](C(C)C)NC(=O)[C@H](CC(C)C)N(C)C(=O)CN(C)C1=O is reported with PAMPA -8.22 (log10 cm/s). For CCC[C@@H]1NC(=O)[C@H](CC(C)C)N(C)C(=O)[C@H](CC(C)C)N(C)C(=O)CN(Cc2ccccc2)C(=O)[C@H](CC(C)C)N(C)C(=O)[C@@H](C)NC(=O)[C@H](CCC(N)=O)NC(=O)[C@H](CC(C)C)N(C)C(=O)[C@H](C(C)C)NC(=O)[C@H](CC(C)C)N(C)C(=O)CN(C)C1=O the data give PAMPA -7.89 (log10 cm/s). For CCC[C@@H]1NC(=O)[C@H](CC(C)C)N(C)C(=O)[C@H](CC(C)C)N(C)C(=O)[C@H](CC(C)C)N(C)C(=O)[C@H](CC(C)C)N(C)C(=O)[C@@H](C)NC(=O)[C@H](CCC(N)=O)NC(=O)[C@H](CC(C)C)N(C)C(=O)[C@H](C(C)C)NC(=O)CN(CCOC)C(=O)CN(C)C1=O the data give PAMPA -8.05 (log10 cm/s). Listed for CCC[C@@H]1NC(=O)[C@H](CC(C)C)N(C)C(=O)[C@H](CC(C)C)N(C)C(=O)[C@H](CC(C)C)N(C)C(=O)[C@H](CC(C)C)N(C)C(=O)[C@@H](C)NC(=O)[C@H](CCC(N)=O)NC(=O)[C@H](CC(C)C)N(C)C(=O)[C@H](C(C)C)NC(=O)CN(CC(C)C)C(=O)CN(C)C1=O: PAMPA -7.89 (log10 cm/s).

CCC[C@@H]1NC(=O)[C@H](CC(C)C)N(C)C(=O)[C@H](CC(C)C)N(C)C(=O)[C@H](CC(C)C)N(C)C(=O)CN(Cc2ccccc2)C(=O)[C@@H](C)NC(=O)[C@H](CCC(N)=O)NC(=O)[C@H](CC(C)C)N(C)C(=O)[C@H](C(C)C)NC(=O)[C@H](CC(C)C)N(C)C(=O)CN(C)C1=O is reported with PAMPA -8.00 (log10 cm/s). CCC[C@@H]1NC(=O)[C@H](CC(C)C)N(C)C(=O)[C@H](CC(C)C)N(C)C(=O)CN(CCO)C(=O)[C@H](CC(C)C)N(C)C(=O)[C@@H](C)NC(=O)[C@H](CCC(N)=O)NC(=O)[C@H](CC(C)C)N(C)C(=O)[C@H](C(C)C)NC(=O)[C@H](CC(C)C)N(C)C(=O)CN(C)C1=O is reported with PAMPA -8.05 (log10 cm/s). CCC[C@@H]1NC(=O)[C@H](CC(C)C)N(C)C(=O)[C@H](CC(C)C)N(C)C(=O)[C@H](CC(C)C)N(C)C(=O)CN(CC(C)C)C(=O)[C@@H](C)NC(=O)[C@H](CCC(N)=O)NC(=O)[C@H](CC(C)C)N(C)C(=O)[C@H](C(C)C)NC(=O)[C@H](CC(C)C)N(C)C(=O)CN(C)C1=O has PAMPA -7.85 (log10 cm/s). For CCC[C@@H]1NC(=O)[C@H](CC(C)C)N(C)C(=O)[C@H](CC(C)C)N(C)C(=O)[C@H](CC(C)C)N(C)C(=O)[C@H](CC(C)C)N(C)C(=O)[C@@H](C)NC(=O)[C@H](CCC(N)=O)NC(=O)[C@H](CC(C)C)N(C)C(=O)[C@H](C(C)C)NC(=O)CN(CCO)C(=O)CN(C)C1=O the data give PAMPA -8.40 (log10 cm/s). CCC[C@@H]1NC(=O)[C@H](CC(C)C)N(C)C(=O)[C@H](CC(C)C)N(C)C(=O)[C@H](CC(C)C)N(C)C(=O)CN(CCOC)C(=O)[C@@H](C)NC(=O)[C@H](CCC(N)=O)NC(=O)[C@H](CC(C)C)N(C)C(=O)[C@H](C(C)C)NC(=O)[C@H](CC(C)C)N(C)C(=O)CN(C)C1=O has PAMPA -7.85 (log10 cm/s).

Collected by the curators of CycPeptMPDB (Li et al. 2023) from Lee et al. 2022, doi:10.1016/j.bmc.2022.116862.